The assay addresses recombinant factor H binding protein (FHbp) ID 1 (Neisseria meningitidis serogroup B …, UniProt Q9JXV4). Put plainly: SPR.

B1: control chimeric human-mouse anti-FHbp Fab JAR 5 (Fab, V domains shown)
VH: QVQMQQPGAELVKPGASVKLSCKASGYTFISYWMHWVKQRPGRGLEWIGRIAPDTGIIYYNEKFKNKATLTVDTPSSTAYMQLNSLTSEDSAVYYCARYLKYDGSTYRFDYWGQGTTLTVSS
VL: DIVMTQAAPSVPVTPGESVSISCRSSKSLLHSNGNTYLFWFLQRPGQSPQLLIYRMSNLASGVPDRFSGSGSGTSFTLRISRVEAEDVGVYYCMQHLEYPYTFGGGTKLEIK
Consider B1, for which the Kd – broadly, the free concentration of one partner at which half of the binding sites on the other are occupied at equilibrium, for simple one-to-one binding – worked out at 54 pM; the dissociation rate constant (koff) (usually the rate constant with which the complex falls apart) was found to be 0.0005 s⁻¹; the kon (as a rule, a measure of how fast the partners come together) is 8.84e+06 M⁻¹ s⁻¹.

The values above are taken from article PMC4479705 (mBio, 2015).
